Amino acid sequences for entries named in this document (tags omitted).
UniProt P03372, whole entry: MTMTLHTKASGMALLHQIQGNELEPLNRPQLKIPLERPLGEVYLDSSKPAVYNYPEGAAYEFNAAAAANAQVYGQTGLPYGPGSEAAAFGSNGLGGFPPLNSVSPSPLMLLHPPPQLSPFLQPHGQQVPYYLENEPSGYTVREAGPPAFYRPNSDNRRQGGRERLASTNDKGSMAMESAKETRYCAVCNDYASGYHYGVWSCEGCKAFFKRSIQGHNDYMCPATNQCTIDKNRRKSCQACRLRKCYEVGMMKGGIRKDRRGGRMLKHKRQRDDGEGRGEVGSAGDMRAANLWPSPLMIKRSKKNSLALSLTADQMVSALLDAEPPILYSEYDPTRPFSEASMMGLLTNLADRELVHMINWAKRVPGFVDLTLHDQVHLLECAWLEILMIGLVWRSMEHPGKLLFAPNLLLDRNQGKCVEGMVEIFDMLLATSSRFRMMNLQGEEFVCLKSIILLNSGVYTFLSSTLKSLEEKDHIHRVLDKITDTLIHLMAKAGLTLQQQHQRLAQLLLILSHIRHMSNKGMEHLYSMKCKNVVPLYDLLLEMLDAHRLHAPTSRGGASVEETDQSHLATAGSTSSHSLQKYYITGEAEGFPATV

What follows are sequences tested against ERα protein (Homo sapiens, UniProt P03372) (assay: Affinity to ERα protein by the MST method). Conditions: FAM-tagged peptide 40nM, protein 2-fold gradient dilution, 16 concentrations.
Format: binding
Experimental: The affinity of the sulfonium stapled bicyclic peptide inhibitor and ERα protein was determined by the MST method. The purified 10µL STAT3 protein solution (about 100µM) was taken and subjected to a 2-fold gradient dilution to prepare 16 concentration gradient dilutions. The peptides with the FAM tags were diluted to a final concentration of 40nM. 10µL of the protein gradient dilutions was taken for mixing. A mixed sample was sucked with a capillary to perform the MST experiment. Table 11. Peptide preparation and affinity assay with screened peptides
In the case of GMAQQAKWMIRWLLGM [ER-W1-3M], the Kd is reported as 5110 nM. In the case of GMARGRGQMQFYTSSM [ER-R7-3M], the Kd is reported as 910 nM. Work on GMCGSLQPMPWLARYM [ER-W3-3M] yielded a Kd of 1030 nM. GMCPWYKGMVCSRFVM [ER-C1-3M] gave a Kd of 1110 nM. GMIRYPSTMLDRPRQM [ER-P3-3M] gave a Kd of 7530 nM. With GMRISQTQMQDSWDWM [ER-R1-3M] the Kd was 3050 nM. GMRLAVTTMGYGFLQM [ER-R2-3M] gave a Kd of 260 nM. GMRRTYYRMRRAPQLM [ER-R9-3M] gave a Kd of 1090 nM. With GMSLCAHPMAGVPSYM [ER-S1-3M] the Kd was 640 nM. GMYVVLQRMYRPRNVM [ER-P2-3M] gave a Kd of 930 nM. For YMDCLCPRMRSFAGAM [ER-R4-3M], the Kd was 380 nM. YMLAKQYPMRQASCSM [ER-X2-3M] gave a Kd of 360 nM. YMLRPQQVMRLFATSM [ER-P4-3M] showed a Kd of 2210 nM. In the case of YMPIARKSMRHGRSSM [ER-X1-3M], the Kd is reported as 530 nM. YMPTSLQFMAGQRHPM [ER-P1-3M] was tested, and the Kd was 8440 nM. YMQATFPSMRGLQCDM [ER-P5-3M] showed a Kd of 550 nM. For YMSPKLIAMGLQTPIM [ER-S2-3M], the Kd was 420 nM. Sequence YMSPRNGHMLRNSSDM [ER-S3-3M] has a Kd of 370 nM. In the case of YMSVRDADMRQRGASM [ER-R5-3M], the Kd is reported as 5280 nM. YMVRGRAQMSPALVQM [ER-V2-3M] was tested, and the Kd was 10400 nM.

Source: patent EP4790062A1, “PHAGE PARTICLE COMPLEX, PREPARATION METHOD THEREFOR, AND USE THEREOF” (Pingshan Translational Medicine Center, Shenzhen Bay …, priority 2023, dated 2025)
